Experimental findings from patent publication US20240174727A1, “LONG-ACTING NATRIURETIC PEPTIDES AND USES THEREOF” (Eli Lilly and Company, priority 2022, published 2024) are described below.

The target of this experiment is T1, human NPRA (Homo sapiens, UniProt P16066).
T1 construct: Full-Length cDNA Cloning and Generation of Cell Lines Overexpressing Natriuretic Peptide Receptors (NPRs); expressed in transfected cells; host or cells: Jump-in T-Rex HEK293 cells, pJTI R4 CMV-TO MCS pA vector, tetracycline induction
T1 sequence (P16066 33-1061): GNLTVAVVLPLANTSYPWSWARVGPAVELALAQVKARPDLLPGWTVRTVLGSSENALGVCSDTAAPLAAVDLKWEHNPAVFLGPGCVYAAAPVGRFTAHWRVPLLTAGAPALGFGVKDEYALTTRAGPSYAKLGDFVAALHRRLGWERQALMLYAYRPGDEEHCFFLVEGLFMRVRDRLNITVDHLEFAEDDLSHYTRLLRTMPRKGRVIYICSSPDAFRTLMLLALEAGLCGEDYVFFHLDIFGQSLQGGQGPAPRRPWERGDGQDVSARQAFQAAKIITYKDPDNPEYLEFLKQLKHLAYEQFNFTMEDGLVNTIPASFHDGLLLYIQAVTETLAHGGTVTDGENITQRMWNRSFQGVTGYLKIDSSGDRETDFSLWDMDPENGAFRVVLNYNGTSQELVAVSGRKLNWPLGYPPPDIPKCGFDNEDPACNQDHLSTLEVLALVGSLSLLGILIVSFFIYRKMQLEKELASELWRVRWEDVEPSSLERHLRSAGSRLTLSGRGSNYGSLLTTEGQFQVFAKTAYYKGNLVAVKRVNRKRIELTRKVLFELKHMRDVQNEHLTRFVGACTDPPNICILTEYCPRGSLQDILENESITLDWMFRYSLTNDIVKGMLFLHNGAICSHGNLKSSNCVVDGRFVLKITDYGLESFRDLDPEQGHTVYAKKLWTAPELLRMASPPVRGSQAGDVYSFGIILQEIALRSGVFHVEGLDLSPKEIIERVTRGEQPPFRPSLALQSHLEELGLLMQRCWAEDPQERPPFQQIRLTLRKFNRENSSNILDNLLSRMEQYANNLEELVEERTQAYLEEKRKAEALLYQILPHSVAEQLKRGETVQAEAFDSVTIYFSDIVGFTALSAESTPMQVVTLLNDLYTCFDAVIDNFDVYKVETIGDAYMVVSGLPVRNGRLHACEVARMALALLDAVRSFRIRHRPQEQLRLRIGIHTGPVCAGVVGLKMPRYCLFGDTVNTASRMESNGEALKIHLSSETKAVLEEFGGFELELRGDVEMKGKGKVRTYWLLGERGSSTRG
As to the kind of experiment: Human NPRA cGMP activity assay (HTRF) in HEK293 cells overexpressing NPRA. It is filed as cell-based. The procedure: All sequences were verified by full-length sequencing performed by ACGT DNA Sequencing Services (Wheeling, IL). The target cDNA was cloned into pJTI R4 CMV-TO MCS pA vector and then co-transfected with pJT1R4 Int vector into Jump-in™ T-Rex™ HEK293 cells for mammalian inducible expression using Jump-in™ T-Rex™ HEK293 kit and Lipofectamine LTX and Plus Reagent following manufacturer's protocols, as briefly described below.
Jump-in™ T-Rex™ HEK293 cells were plated in a BioCOAT® poly-D-lysine coated 6-well plate (Becton Dickinson, cat no. 354413) at 1 million cells/well in 2 mL culture medium and incubated for 18 h at 37° C. and 5% CO2 to 50-70% confluence. A cDNA mix was made in a 50 mL tube by adding 1.5 μg target cDNA, 1.5 μg pJT1R4 Int vector, 3 μL Plus Reagent, and 300 μL Opti-MEM I sequentially into the tube. A reagent mix was made in a separate 50 mL tube by adding 7.5 μL Lipofectamine LTX into 300 μL Opti-MEM I. The mixtures were incubated for 5 min at room temperature. The cDNA mix was then transferred into the reagent mix, mixed well, and incubated for additional 30 min at room temperature. A 500 μL of cDNA/Lipofectamine complex was then transferred to the wells of the cell plate in which the culture medium was changed to 2 mL of transfection medium containing DMEM with 4.5 g/L D-glucose supplemented with 10% FBS-HI and 20 mM HEPES. Transfected cells were cultured for 48 h in an incubator at 37° C. and 5% CO2. A subclone or pool from each overexpressing cell line was maintained in culture medium with the addition of 2 mg/mL G418 sulfate for the clone selection based on its built-in resistance to G418 sulfate for at least 3 weeks with medium changed every 2-3 days.
NPRs were overexpressed in T-Rex™ HEK293 cells following the induction with 300 ng/mL tetracycline in culture medium for 48 h. Induced cell lines in an exponential growth phase were treated with 0.05% trypsin-EDTA for a few seconds at room temperature, harvested in cell medium containing FBS to neutralize the trypsin, counted, and cryopreserved at the density of 2 million cells/mL in cell preservation solution containing FBS-HI with 5% DMSO. Cryopreserved cells were stored at −80° C. for a few days prior to transferring to a liquid nitrogen tank. Induced cell lines were then used for suspension assays to measure the activity of polypeptides to stimulate cGMP production in cGMP assays or for the preparation of cell membranes to measure the binding activity of polypeptides in competitive radioligand binding assays, as described below.
Test polypeptides were added starting at 10 μM concentration and at 10-fold decreasing concentrations to obtain 8-point concentration-response curves (i.e., 10 μM to 1 pM). The quantity of cGMP generated was detected using HTRF® technology and normalized to maximum amount produced by 100 nM amidated rat ANP and the minimum amount produced by assay buffer. Detailed steps are outlined below.
Stock solutions of test polypeptides (2 mM) dissolved in DMSO were first diluted 100-fold in assay buffer containing HBSS with Ca^2+ and Mg^2+, 5 mM HEPES, 0.5 mM IBMX, and 0.1% BSA or 0.1% casein (pH 7.4). The polypeptides were further serially diluted in 1:10 dilution steps in assay buffer containing 0.1% BSA or 0.1% casein to generate 8-point 2× working stock solutions ranging from 20 μM to […].
A 10 μL cell suspension containing 4000 cells was plated in Costar® half-area white opaque 96-well plates (Corning, cat no. 3693). Then 10 μL of assay buffer (basal activity), 200 nM of amidated rat ANP (maximum activity) or 2× working stock solutions of test polypeptides were transferred into the plate. Final concentration of DMSO in each well was 0.5%. The plate was shaken for 15 sec and then incubated for 40 min at room temperature.
The cGMP generated was measured using cGMP kit following the manufacturer's directions, as described below.

Setting [1] is: cGMP Assay (EC50, pM) w/Casein hNPRA, assay buffer with 0.1% casein.
The mark [2] stands for this setting: cGMP Assay (EC50, pM) w/BSA hNPRA, assay buffer with 0.1% BSA.

The EC50 is the concentration needed to bring the measured effect to its halfway point. Low values mean greater potency, high ones weaker potency.

Regarding `CC[C@H](C)[C@@H]1NC(=O)[C@H](CCCNC(=N)N)NC(=O)[C@H](CC(=O)O)NC(=O)[C@H]([C@@H](C)CC)NC(=O)[C@H](CCCNC(=N)N)NC(=O)CNC(=O)CNC(=O)[C@H](Cc2ccccc2)NC(=O)[C@@H](NC(=O)[C@H](CO)NC(=O)[C@H](CO)NC(=O)[C@H](CCCNC(=N)N)NC(=O)[C@H](CCC(=O)O)NC(=O)[C@H](CCCCN)NC(=O)[C@H](CCC(=O)O)NC(=O)CNC(=O)[C@H](CCCCN)NC(=O)[C@H](CCC(=O)O)NC(=O)[C@H](CCCCN)NC(=O)[C@H](CCC(=O)O)NC(=O)[C@H](CCCCN)NC(=O)[C@H](CCC(=O)O)NC(=O)CC[C@H](NC(=O)CCCCCCCCCCCCCCCCCCC(=O)O)C(=O)O)CSSC[C@@H](C(=O)N2CCC[C@H]2C(=O)N[C@@H](CO)C(=O)N[C@@H](Cc2ccccc2)C(=O)N[C@@H](CCCNC(=N)N)C(=O)N[C@@H](Cc2c[nH]cn2)C(=O)NCC(=O)NCC(=O)N2CCC[C@H]2C(=O)N[C@@H](CO)C(=O)N[C@@H](CO)C(=O)NCC(=O)N[C@@H](C)C(=O)N2CCC[C@H]2C(=O)N2CCC[C@H]2C(=O)N2CCC[C@H]2C(=O)N[C@@H](CO)C(N)=O)NC(=O)CNC(=O)[C@H](CC(C)C)NC(=O)CNC(=O)[C@H](CO)NC(=O)[C@H](Cc2ccc(O)cc2)NC(=O)[C@H](Cc2c[nH]cn2)NC(=O)CNC1=O` [Example 49], under setting [1], the concentration for a half-maximal effect (EC50) amounted to 299 pM.

`CC[C@H](C)[C@@H]1NC(=O)[C@H](CCCNC(=N)N)NC(=O)[C@H](CC(=O)O)NC(=O)[C@H]([C@@H](C)CC)NC(=O)[C@H](CCCNC(=N)N)NC(=O)[C@H](CCCCN)NC(=O)CNC(=O)[C@H](Cc2ccccc2)NC(=O)[C@@H](NC(=O)[C@H](CO)NC(=O)[C@H](CO)NC(=O)[C@H](CCCNC(=N)N)NC(=O)CCNC(=O)[C@H](CCCCN)NC(=O)[C@H](CCC(=O)O)NC(=O)CCOCCOCCOCCOCCOCCOCCOCCOCCOCCOCCOCCOCCOCCOCCOCCOCCOCCOCCOCCOCCOCCOCCOCCOCCNC(=O)CNC(=O)[C@H](CCCCN)NC(=O)[C@H](CCC(=O)O)NC(=O)[C@H](CCCCN)NC(=O)[C@H](CCC(=O)O)NC(=O)[C@H](CCCCN)NC(=O)[C@H](CCC(=O)O)NC(=O)CC[C@H](NC(=O)CCCCCCCCCCCCCCCCCCC(=O)O)C(=O)O)CSCSC[C@@H](C(=O)N2CCC[C@H]2C(=O)N[C@@H](CO)C(=O)N[C@@H](Cc2ccccc2)C(=O)N[C@@H](CCCNC(=N)N)C(=O)N[C@@H](Cc2c[nH]cn2)C(=O)NCC(=O)NCC(=O)N[C@@H](CCCCN)C(=O)N[C@@H](CO)C(=O)N[C@@H](CO)C(=O)NCC(=O)N[C@@H](C)C(=O)N2CCC[C@H]2C(=O)N2CCC[C@H]2C(=O)N2CCC[C@H]2C(=O)N[C@@H](CO)C(N)=O)NC(=O)CNC(=O)[C@H](CC(C)C)NC(=O)CNC(=O)[C@H](CO)NC(=O)[C@H](Cc2ccc(O)cc2)NC(=O)[C@H](Cc2c[nH]cn2)NC(=O)CNC1=O` [Example 102] had an EC50 under setting [2] of 3490 pM.

The compound `CC[C@H](C)[C@@H]1NC(=O)[C@H](CCCNC(=N)N)NC(=O)[C@H](CC(=O)O)NC(=O)[C@H]([C@@H](C)CC)NC(=O)[C@H](CCCCN)NC(=O)CNC(=O)CNC(=O)[C@H](Cc2ccccc2)NC(=O)[C@@H](NC(=O)[C@H](CO)NC(=O)[C@H](CO)NC(=O)[C@H](CCCNC(=N)N)NC(=O)CNC(=O)[C@H](CCCCN)NC(=O)[C@H](CCC(=O)O)NC(=O)CNC(=O)[C@H](CCCCN)NC(=O)[C@H](CCC(=O)O)NC(=O)[C@H](CCCCN)NC(=O)[C@H](CCC(=O)O)NC(=O)[C@H](CCCCN)NC(=O)[C@H](CCC(=O)O)NC(=O)CC[C@H](NC(=O)CCCCCCCCCCCCCCCCCCC(=O)O)C(=O)O)CSSC[C@@H](C(=O)N2CCC[C@H]2C(=O)N[C@@H](CO)C(=O)N[C@@H](Cc2ccccc2)C(=O)N[C@@H](CCCNC(=N)N)C(=O)N[C@@H](Cc2c[nH]cn2)C(=O)NCC(=O)NCC(=O)N2CCC[C@H]2C(=O)N[C@@H](CO)C(=O)N[C@@H](CO)C(=O)NCC(=O)N[C@@H](C)C(=O)N2CCC[C@H]2C(=O)N2CCC[C@H]2C(=O)N2CCC[C@H]2C(=O)N[C@@H](CO)C(N)=O)NC(=O)CNC(=O)[C@H](CC(C)C)NC(=O)CNC(=O)[C@H](CO)NC(=O)[C@H](Cc2ccc(O)cc2)NC(=O)[C@H](Cc2c[nH]cn2)NC(=O)CNC1=O` [Example 45] had a concentration for a half-maximal effect (EC50) under setting [2] of 25200 pM.

Compound `CC[C@H](C)[C@@H]1NC(=O)[C@H](CCCNC(=N)N)NC(=O)[C@H](CC(=O)O)NC(=O)[C@H]([C@@H](C)CC)NC(=O)[C@H](CCCNC(=N)N)NC(=O)CNC(=O)CNC(=O)[C@H](Cc2ccccc2)NC(=O)[C@@H](NC(=O)[C@H](CO)NC(=O)[C@H](CO)NC(=O)[C@H](CCCNC(=N)N)NC(=O)CCNC(=O)[C@H](Cc2ccncc2)NC(=O)[C@H](CO)NC(=O)COCCOCCNC(=O)COCCOCCNC(=O)COCCOCCNC(=O)COCCOCCNC(=O)COCCOCCNC(=O)COCCOCCNC(=O)CNC(=O)[C@H](CCCCN)NC(=O)[C@H](CCC(=O)O)NC(=O)[C@H](CCCCN)NC(=O)[C@H](CCC(=O)O)NC(=O)[C@H](CCCCN)NC(=O)[C@H](CCC(=O)O)NC(=O)CC[C@H](NC(=O)CCCCCCCCCCCCCCCCCCC(=O)O)C(=O)O)CSCSC[C@@H](C(=O)N2CCC[C@H]2C(=O)N[C@@H](CO)C(=O)N[C@@H](Cc2ccccc2)C(=O)N[C@@H](CCCNC(=N)N)C(=O)N[C@@H](Cc2c[nH]cn2)C(=O)NCC(=O)N[C@@H](CO)C(=O)N2CCC[C@H]2C(=O)N[C@@H](CO)C(=O)N[C@@H](CO)C(=O)NCC(=O)N[C@@H](C)C(=O)N2CCC[C@H]2C(=O)N2CCC[C@H]2C(=O)N2CCC[C@H]2C(=O)N[C@@H](CO)C(N)=O)NC(=O)CNC(=O)[C@H](CC(C)C)NC(=O)CNC(=O)[C@H](CO)NC(=O)[C@H](Cc2ccc(O)cc2)NC(=O)[C@H](Cc2c[nH]cn2)NC(=O)CNC1=O` [Example 111] displayed an EC50 under setting [1] of 1530 pM.
